Like-named read-outs stand apart in the source and are kept apart here. Where only a bound is given, the exact number is not on record here.

Sequences of proteins named here, by UniProt entry; tags and fusion partners are left off.
UniProt P34913, whole entry: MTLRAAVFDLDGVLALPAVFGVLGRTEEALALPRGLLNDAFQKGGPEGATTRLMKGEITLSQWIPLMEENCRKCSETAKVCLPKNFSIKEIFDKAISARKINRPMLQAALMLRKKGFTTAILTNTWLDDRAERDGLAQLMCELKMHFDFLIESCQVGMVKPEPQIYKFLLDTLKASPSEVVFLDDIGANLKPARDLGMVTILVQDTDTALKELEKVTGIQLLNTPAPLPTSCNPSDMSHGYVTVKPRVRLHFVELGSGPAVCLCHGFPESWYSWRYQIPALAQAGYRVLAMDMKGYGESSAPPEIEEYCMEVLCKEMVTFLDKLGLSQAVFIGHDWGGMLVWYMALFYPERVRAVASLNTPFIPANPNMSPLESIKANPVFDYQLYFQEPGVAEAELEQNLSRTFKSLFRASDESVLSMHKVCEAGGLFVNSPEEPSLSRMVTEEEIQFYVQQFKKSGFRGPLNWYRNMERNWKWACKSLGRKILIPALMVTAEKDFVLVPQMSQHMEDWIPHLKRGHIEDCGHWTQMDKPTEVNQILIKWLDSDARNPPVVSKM

For one assay, the target named is human sEH (Homo sapiens (Human), UniProt P34913). The experiment in a line: Inhibitory activity against human sEH. The class given is biochemical.
Another assay has as its system HepG2 hepatoma cell line. The experiment in a line: MTT cell viability assay, HepG2. The class given is cell-based. Conditions: Homo sapiens, HepG2, 72 h, read-out: EC50 on cell viability, HepG2 (Liver). In general terms: Formazan colour is commonly taken as a measure of viable cells.
Another assay has as its system Huh-7 hepatoma cell line. The experiment in a line: MTT cell viability assay, Huh-7. Conditions: Homo sapiens, Huh-7, 72 h, read-out: EC50 on cell viability, Huh-7 (Liver). It counts as cell-based.

The term IC50 denotes the concentration that gives 50% inhibition. Consider `CNC(=O)c1ccc(O[C@H]2CC[C@@H](NC(=O)Nc3ccc(OC(F)(F)F)cc3)CC2)cc1` [Compound 2228, cis-N-Methyl-4-{4-[3-(4-trifluoromethoxy-phenyl)-ureido]-cyclohexyloxy}-benzamide], for which the IC50 against human sEH came out at 0.5 nM.
Consider `CNC(=O)c1ccc(O[C@H]2CC[C@H](NC(=O)Nc3ccc(OC(F)(F)F)cc3)CC2)cc1` [Compound 2227, trans-N-Methyl-4-{4-[3-(4-trifluoromethoxy-phenyl)-ureido]-cyclohexyloxy}-benzamide], for which the IC50 on human sEH (read-out: Human sEH IC50) is 0.5 nM.
As usually defined, the EC50 is the concentration giving half of the maximal effect. As for `O=C(NC12CC3CC(CC(C3)C1)C2)N[C@H]1CC[C@H](Oc2ccc(C(=O)O)cc2)CC1` [Compound 1471, reference compound], the EC50 in the assay with HepG2 hepatoma cell line and in the assay on Huh-7 hepatoma cell line was over 25000 nM each time.
For the compound `CC(C)(C)OC(=O)c1cc(O[C@H]2CC[C@@H](NC(=O)Nc3ccc(Cl)c(C(F)(F)F)c3)CC2)ccn1` [Compound 2318, cis-4-{4-[3-(4-Chloro-3-trifluoromethyl-phenyl)-ureido]-cyclohexyloxy}-pyridine-2-carboxylic acid tert-butyl ester], at human sEH (read-out: Human sEH IC50), the IC50 is 0.5 nM.
